Patent publication US20030064921A1, “Methods and compounds for modulating melanocortin receptor ligand binding and activity” (The Regents of the University of California, priority 1999, published 2003)

By UniProt entry, the sequences of proteins in these tests, tags left out.
UniProt P32245, whole entry: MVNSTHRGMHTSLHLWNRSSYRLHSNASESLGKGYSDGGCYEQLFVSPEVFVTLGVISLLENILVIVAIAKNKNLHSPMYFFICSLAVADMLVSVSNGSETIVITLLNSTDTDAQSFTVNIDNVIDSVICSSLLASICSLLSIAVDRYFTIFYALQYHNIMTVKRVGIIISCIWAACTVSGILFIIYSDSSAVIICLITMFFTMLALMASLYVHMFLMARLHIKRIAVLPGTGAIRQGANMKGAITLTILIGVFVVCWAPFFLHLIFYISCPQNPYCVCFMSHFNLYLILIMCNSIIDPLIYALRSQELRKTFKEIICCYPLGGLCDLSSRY

Target: T1, human melanocortin receptor 4 (human, UniProt P32245 1-332)
T1 construct: whole, on cells; also called MC4r; MC4R
Experiment: competition radioligand binding on HEK 293 cells stably expressing hMC4R; tracer 125I-NDP-MSH or 125I-AGRP (87-132)
Method: HEK 293 cells stably expressing the human melanocortin receptors (hMCR's) 1-5 are grown in media. […] Concentrations of cold ligand are added from 100 mM -1 nM. Binding reactions are terminated by washing cells twice with MEM 0.2% BSA. The cells are lysed with 0.1 N NaOH 1% Triton X, and radioactivity of the lysate is quantified with a gamma-analytical counter. […] IC₅₀<100 mM is considered a specific binder

IC50: 9 nM
B1: N^α-Acetyl-MARP (minimized agouti related protein, human AGRP residues 87-132) (peptide)
peptide: CVRLHESCLGQQVPCCDPCATCYCRFFNAFCYCRKLGTAMNPCSRT
modifications: N-alpha-acetyl at the N-terminus (as synthesized); five disulfide bonds 1-16, 8-22, 15-33, 19-43, 24-31 (MARP numbering)
notes: Chemically synthesized and folded; it is treated as the same molecule
